From PubChem
Most compounds without a hit are left out; they make up all but 2.4% or so of the library.
ALOX12 inh = blocks human arachidonate 12S-lipoxygenase. hit rate 1.1% among 580,000. Potency, µM (highest dose often 108 µM), for the others: at the highest dose activity change, negative = inhibition, most hits filed as inhibitors. purified 12hLO, xylenol orange hydroperoxide absorbance; also: % is scaled to controls: 0 for no effect and ±100 for the full control effect
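Purified human 12hLO at 150 nM in 25 mM Hepes, 0.01% Triton X-100, pH 7.0, preincubated 15 min at room temperature with compound. Reaction started with 40 uM arachidonic acid, 30 min at room temperature. Hydroperoxide measured by Fe-xylenol orange, 573/405 nm absorbance ratio.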
ClpP mod = qHTS Assay for Activators of ClpP; purified B. subtilis ClpP, FRET peptide cleavage, 20 min; ATP-dependent Clp protease proteolytic subunit (Bacillus subtilis (strain 168)), P80244; Potency, µM (doses to about 57.5 µM), without a hit: at the top dose activity change, negative = active; hit rate 1.9% among 340,000; AID 651965, 2013; active = well fitted falling curve with a large enough effect; inconclusive = small, poorly fitted or top-dose-only effect; inactive = no such curve, though single readings can be large or run the other way; also: the source files actives as falling curves though it sought activators and does not explain the sign; nearly all actives have a fitted effect of over 65% in size
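Buffer: 100 mM Tris/HCl pH8, 100 mM KCl, 0.05% low protease BSA, 2.5% glycerol, 0.01% Tween-20. ClpP 10 microg/mL final; 20 min RT; delta FRET normalized to ADEP and DMSO controls.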
PTAP TSG101 blk = blocks PTAP/TSG101 interaction to inhibit HIV-1 budding; Q99816; AID 493005; Potency, µM (doses to about 115 µM), without a hit: at the highest dose activity change, negative = inhibition, most hits filed as inhibitors; Fluorescence polarization, FITC-PTAP peptide / Tsg101 binding; 340,000 tested, under 10 active; active = well fitted inhibition curve with a large enough effect in the main read-out, with a control signal flat, not every such curve was filed as active; inconclusive = small, poorly fitted or top-dose-only effect, or effect the other way, or a change in a side signal; inactive = no such curve, though single readings can be large or run the other way; also: % of control where 0% means no effect
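Steps: Tsg101 binding domain dispensed (10 uM final), compounds pinned in DMSO, FITC-labeled PTAP-motif peptide added (50 nM final); after 20 min binding at room temperature, polarization measured.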
TDP1 inh = inhibitors of human tyrosyl-DNA phosphodiesterase TDP1. Q9NUW8. Potency, µM (series often up to 130 µM), for the others: top-dose activity change, negative = inhibition, hits mostly inhibitors. hit rate 0.28% among 350,000. AID 485290. recombinant TDP1, AlphaScreen DNA substrate cleavage; also: % is scaled to controls: 0 for no effect and ±100 for the full control effect; nearly all actives have a fitted effect of over 40% in size
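Recombinant human Tdp1 (E. coli-expressed, 1 nM final) preincubated with compounds 15 min at room temperature, then 5'-biotin/3'-phosphotyrosine-FITC DNA substrate (15 nM final) added for 5 min. AlphaScreen beads (10 ug/ml final) added 10 min; cleavage lowers signal.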
Rango dissoc inh = inhibitors of RanGTP-induced Rango-importin beta complex dissociation. O95149+P62826. Biochemical FRET Rango-importin beta, RanGTP-induced dissociation. Potency, µM (titrated, usually from 46.1 µM), for inactives: at the top dose activity change, negative = inhibition. hit rate 0.071% among 340,000; calls by dose curve; also: % of control where 0% means no effect; nearly all actives have a fitted effect of over 45% in size
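Rango (0.1 uM)–importin beta (0.25 uM) complex; RanGTP-RCC1 trigger; 45 min RT; CFP/YFP FRET read.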
Rango complex inh = prevents formation of the Rango-importin beta complex. Q14974. hit rate 0.031% among 340,000. Potency, µM (titrated, usually from 92.2 µM), for inactives: at the top dose inhibition of complex formation. Rango CFP/YFP FRET sensor + importin beta, 45 min; calls by dose curve;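 also: 0% = DMSO wells and 100% = buffer wells lacking importin beta; nearly all actives have a fitted effect of over 15% in size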
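FRET biosensor Rango (snurportin 1 IBB between N-terminal EYFP and C-terminal Cerulean), 50 nM in PBS/1 mM DTT/0.02% Tween-20/0.1% BSA, preincubated 5 min RT with compound; 0.125 microM importin beta added, 45 min RT, CFP/YFP FRET ratio read.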
* = called active by the depositor; ? = inconclusive; / = no result; ! = not active in a repeat; [ ] = another dose, or the depositor's remark. Unless noted, calls follow the shape of the dose curve; as a rule, active = well fitted curve in the direction sought with a large enough effect; inconclusive = small, poorly fitted or top-dose-only effect, or another doubt; inactive = no such curve, though single readings can be large; an effect the other way counts as inactive or inconclusive. Potency is read from the fitted curve at half-maximal effect.

no. | SMILES | ALOX12 inh | ClpP mod | PTAP TSG101 blk | TDP1 inh | Rango dissoc inh | Rango complex inh
1 | O=C(O)CN1C(=O)/C(=C\c2cc(Br)ccc2OCc2ccccc2Cl)SC1=S | ? | / | -8% | / | -10% | -1%
2 | O=C(O)CN1C(=O)/C(=C\c2cc(Br)ccc2OCc2ccc([N+](=O)[O-])cc2)SC1=S | 8.9µM* | 3% | -10% | / | 1% | -1%
3 | COc1cccc2c1cc1c(=O)n(CC(=O)N3CCN(c4ccc(F)cc4)CC3)nc(C)n12 | -7% | 20µM* | / | -2% | / | /
4 | COc1cccc2c1cc1c(=O)n(CC(=O)NC3CCCCC3)nc(C)n12 | -29% | 32µM* | -12% | 0% | 12% | 3%
5 | COc1cccc2c1cc1c(=O)n(CC(=O)O)nc(C)n12 | -8% | 27% | / | -1% | / | /
6 | CCCN1CCN(C(=O)Cn2nc(C)n3c(cc4c(OC)cccc43)c2=O)CC1 | 20% | / | -2% | / | 0% | -2%
7 | CC[C@H]1CN(C(=O)Nc2cccc(C(F)(F)F)c2)CC[C@H]1CC(=O)Nc1ccccc1 | -27%[176 µM] | / | / | / | / | /
8 | O=C(Nc1ccc2nc(-c3ccco3)c(-c3ccco3)nc2c1)NC1CC1 | / | 0% | -12% | 3.2µM* | ? | ?

Continued:
no. | SMILES | ALOX12 inh | ClpP mod | PTAP TSG101 blk | TDP1 inh | Rango dissoc inh | Rango complex inh
9 | Cc1cccc(C(=O)N2CCCC(Cc3nncn3C)C2)c1 (configuration not stated) | 29% | / | / | / | / | /
10 | O=C(CSc1nc2ccccc2c(=O)n1-c1ccccc1)NC(=O)CN1CCCC1=O | -1% | / | -3% | 22µM* | 2% | 0%
11 | Cc1cc(C)n(CC(=O)N2CCCn3ccnc3C2c2cnn(C)c2)n1 (configuration not stated) | -4% | / | / | / | / | /
12 | CC1=C(C#N)C(C)C2=C(CC(C)(C)CC2=O)N1 (configuration not stated) | 0% | 18µM* | 0% | -7% | -12% | ?
13 | CC1=C(C#N)C(c2ccccc2)C2=C(CC(C)(C)CC2=O)N1 (configuration not stated) | 5% | / | / | / | / | /
14 | CC1=C(C#N)C(c2cccnc2)C2=C(CC(C)(C)CC2=O)N1 (configuration not stated) | 21% | 14µM* | 0% | 0% | ? | ?
15 | CNC(=O)NC(=O)CCN(C)c1ccccc1 | 9% | / | / | / | / | /
16 | O=C(N/N=C/c1c(O)ccc2ccccc12)Nc1ccccc1 | 379% | -3% | 5% | / | ? | 65µM*

Next records.
no. | SMILES | ALOX12 inh | ClpP mod | PTAP TSG101 blk | TDP1 inh | Rango dissoc inh | Rango complex inh
17 | O=C(CSCC(=O)Nc1ccccc1)N/N=C/c1c(O)ccc2ccccc12 | ? | 1% | 2% | 11% | ? | ?
18 | Cc1c(C)c2ccc(O[C@@H]3O[C@H](CO)[C@H](O)[C@H](O)[C@H]3O)cc2oc1=O | 12% | 4% | -12% | / | -2% | -1%
19 | COc1cc2cc(Oc3ccc4ccc(=O)oc4c3)c(=O)oc2cc1O[C@@H]1O[C@H](CO)[C@@H](O)[C@H](O)[C@H]1O | -26% | 4% | -5% | 25µM* | -20% | -4%
20 | Cc1ccc2cc(CCl)c(Cl)nc2c1C | 4.5µM* | / | / | / | / | /
21 | Cc1ccc(CN=Cc2[nH]c3ccc(Br)c(Cl)c3c2O)cc1 | ? | -1% | 7% | -7% | -21% | ?
22 | Oc1c(C=NCc2ccc(F)cc2)[nH]c2ccc(Br)c(Cl)c12 | 13µM* | / | / | 2% | / | /
23 | O=C(CCC(=O)c1cccs1)NCc1ccc(OCc2cccnc2)cc1 | -17% | / | / | / | / | /
24 | S=C1NC[C@H](c2ccccc2)N1CCCCC1CCCCC1 | 35µM* | 0% | -5% | 5% | -4% | 2%

2 records drawn at random from those above:
no. | SMILES | ALOX12 inh | ClpP mod | PTAP TSG101 blk | TDP1 inh | Rango dissoc inh | Rango complex inh
24 | S=C1NC[C@H](c2ccccc2)N1CCCCC1CCCCC1 | 35µM* | 0% | -5% | 5% | -4% | 2%
21 | Cc1ccc(CN=Cc2[nH]c3ccc(Br)c(Cl)c3c2O)cc1 | ? | -1% | 7% | -7% | -21% | ?

Next section.
no. | SMILES | ALOX12 inh | ClpP mod | PTAP TSG101 blk | TDP1 inh | Rango dissoc inh | Rango complex inh
25 | NC1=NC[C@H](c2ccccc2)N1CCCCC1CCCCC1 | ? | 1% | -1% | 4% | -9% | 4%
26 | C[C@]1(CO)[C@H]2Cc3sc(NC(=O)C4CCC4)nc3[C@@H](CC(=O)NC3CCCC3)[C@]2(C)CC[C@H]1O | -18% | / | / | / | / | /
27 | CC(=O)C1=C(C)NC(SCC(=O)c2ccc(Cl)cc2)=C(C#N)C1CC(C)C (configuration not stated) | -14% | 25µM* | 0% | 5% | ? | ?
28 | CC(=O)C1=C(C)NC(SCC(=O)c2ccc(F)cc2)=C(C#N)C1CC(C)C (configuration not stated) | ? | -3% | -1% | 0% | ? | ?
29 | O=C(CC1=CCCCC1)N1CCC(C2CCNC2)CC1 (configuration not stated) | 40µM* | / | / | / | / | /
30 | CCc1ccc(C(=O)N2CCC(C3CCNC3)CC2)cc1 (configuration not stated) | -4% | / | / | / | / | /
31 | CNCc1ccncc1 | 0.33µM* | / | / | / | / | /
32 | CN1CCN(Cc2cc(F)ccc2Cl)CC12CCNC(=O)CC2 (configuration not stated) | 41% | / | / | / | / | /

Following part
no. | SMILES | ALOX12 inh | ClpP mod | PTAP TSG101 blk | TDP1 inh | Rango dissoc inh | Rango complex inh
33 | O=C(CCCOc1ccccc1)Nc1ccccc1C(F)(F)F | -25% | 2% | -6% | 3% | 1% | 1%
34 | O=C(O)Cc1cccc(OCCCN(Cc2cccc(C(F)(F)F)c2Cl)CC(c2ccccc2)c2ccccc2)c1 | 24µM*! | / | / | -7% | / | /
35 | O=C(NC1CCOCC1)c1ccc2c(c1)OCCN(c1cccc(OC(F)(F)F)c1)C2 | -4%[176 µM] | / | / | / | / | /
36 | O=C(O)c1[nH]c2ccccc2c1NS(=O)(=O)c1ccc(F)cc1 | 12% | 0% | -4% | 6% | -30% | -3%
37 | O=C(O)c1[nH]c2ccccc2c1NS(=O)(=O)Cc1ccccc1 | 0% | 28µM* | -2% | 3% | -1% | -1%
38 | CCCN(CCC)S(=O)(=O)c1ccc(C(=O)OCCN2C(=O)c3cccc4c(N5CCOCC5)ccc(c34)C2=O)cc1 | / | 22µM* | ? | -9% | ? | ?
39 | Cc1ccc(C2(O)CCN(CC(c3ccccc3)c3ccccc3)CC2)nc1 | 48% | / | / | / | / | /
40 | N#Cc1cccc(CN2C[C@H](O)C[C@H]2c2nc(-c3cccc([N+](=O)[O-])c3)no2)c1 | -3%[176 µM] | / | / | / | / | /

Record cards (already shown). Values in the order: ALOX12 inh	ClpP mod	PTAP TSG101 blk	TDP1 inh	Rango dissoc inh	Rango complex inh
`O=C(O)c1[nH]c2ccccc2c1NS(=O)(=O)Cc1ccccc1` reads 0%	28µM*	-2%	3%	-1%	-1%
`O=C(O)Cc1cccc(OCCCN(Cc2cccc(C(F)(F)F)c2Cl)CC(c2ccccc2)c2ccccc2)c1` reads 24µM*!	/	/	-7%	/	/
`O=C(CCCOc1ccccc1)Nc1ccccc1C(F)(F)F` reads -25%	2%	-6%	3%	1%	1%
`Cc1ccc(C2(O)CCN(CC(c3ccccc3)c3ccccc3)CC2)nc1` reads 48%	/	/	/	/	/

Continuation.
no. | SMILES | ALOX12 inh | ClpP mod | PTAP TSG101 blk | TDP1 inh | Rango dissoc inh | Rango complex inh
41 | Cc1ccccc1-c1nc(NCc2cccnc2)c2ccccc2n1 | 28µM* | / | / | -3%[56.1 µM] | / | /
42 | Cc1ccc(Nc2nc(-c3ccncc3)nc3ccccc23)cc1 | 361% | / | -3% | 3% | 1% | -1%
43 | Cc1ccccc1-c1nc(Nc2ccncc2)c2ccccc2n1 | 35µM* | / | / | / | / | /
44 | c1ccc(OCCOCCSc2ncccn2)cc1 | 349% | 20µM* | -4% | 1% | -3% | -5%
45 | Cc1cc2c(C)nc(-c3ccccc3)nc2o1 | 0%[57.4 µM] | -1% | -5% | -5% | -1% | 1%
46 | Cc1nc(-c2cn[nH]c2)c2cc(C)oc2n1 | 28% | 28µM* | -6% | -1% | 0% | 3%
47 | CCOC(=O)C(C)Sc1nc(-c2cccs2)ccc1C#N (configuration not stated) | -27% | 13µM* | 1% | / | -5% | -4%
